Here are results for one molecule from paper PMC10059965, “Tsaokoic Acid: A New Bicyclic Nonene from the Fruits of Amomum tsao-ko with Acetylcholinesterase Inhibitory Activity” (Molecules, 2023).

Protein sequences, listed by entry. Tags and fused reporters are not part of them. Residues count along the entry.
UniProt P22303, 32-614: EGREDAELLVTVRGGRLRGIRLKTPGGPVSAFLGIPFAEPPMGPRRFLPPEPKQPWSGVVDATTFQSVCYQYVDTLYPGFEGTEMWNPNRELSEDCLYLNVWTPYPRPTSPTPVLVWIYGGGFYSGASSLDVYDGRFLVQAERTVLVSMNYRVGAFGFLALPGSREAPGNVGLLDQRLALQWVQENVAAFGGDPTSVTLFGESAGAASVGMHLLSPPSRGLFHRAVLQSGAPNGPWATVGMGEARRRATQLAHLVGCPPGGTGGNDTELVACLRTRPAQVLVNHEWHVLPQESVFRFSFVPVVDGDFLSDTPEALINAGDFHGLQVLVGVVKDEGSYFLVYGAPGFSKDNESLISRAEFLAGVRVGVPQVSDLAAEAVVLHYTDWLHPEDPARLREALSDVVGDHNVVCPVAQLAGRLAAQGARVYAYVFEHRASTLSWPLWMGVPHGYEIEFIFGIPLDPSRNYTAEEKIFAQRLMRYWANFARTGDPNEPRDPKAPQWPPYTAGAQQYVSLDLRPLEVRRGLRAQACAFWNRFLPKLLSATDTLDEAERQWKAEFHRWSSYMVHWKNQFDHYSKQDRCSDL

This assay deals with AChE (Homo sapiens, UniProt P22303). The assay is described as follows: biochemical.

Consider `COc1ccc2cc3[n+](cc2c1OC)CCc1cc2c(cc1-3)OCO2` [berberine, reference compound], for which the IC50 came out at 190 nM.

As usually defined, the IC50 is the concentration needed to halve the response being measured.
